From US20080194024A1, “Culture of Non-Embryonic Cells at High Cell Density” (priority 2005, published 2008)

Amino acid sequences for entries named in this document (tags omitted).
UniProt P49841, whole entry, species assumed: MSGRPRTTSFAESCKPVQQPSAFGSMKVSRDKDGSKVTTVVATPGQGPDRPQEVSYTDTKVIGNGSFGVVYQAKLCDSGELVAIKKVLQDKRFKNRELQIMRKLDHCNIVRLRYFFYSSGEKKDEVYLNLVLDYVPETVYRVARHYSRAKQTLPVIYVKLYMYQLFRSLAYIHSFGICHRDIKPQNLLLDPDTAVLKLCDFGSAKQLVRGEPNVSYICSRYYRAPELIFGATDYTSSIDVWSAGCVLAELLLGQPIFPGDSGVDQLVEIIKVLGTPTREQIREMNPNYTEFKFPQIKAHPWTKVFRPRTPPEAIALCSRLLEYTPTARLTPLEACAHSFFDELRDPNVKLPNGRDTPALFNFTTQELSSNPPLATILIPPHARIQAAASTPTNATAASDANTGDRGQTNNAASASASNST

Experiments:
[1] = test system: murine low-density MAPCs
[2] = test system: Xenopus embryos; conditions: developmental assays; cited from earlier work
[3] = target: GSK-3β (Homo sapiens, UniProt P49841); conditions: cited from earlier work

Row | SMILES | FACS phenotype [1] | activity in developing Xenopus embryos [2] | IC50 [3] [nM]
1 | O=C1Nc2cc(Br)ccc2/C1=C1/Nc2ccccc2/C1=N\O [BIO, 6-bromoindirubin-3′-oxime] | not affected | mimicked Wnt signaling | –
2 | O=C1Nc2ccccc2/C1=C1/Nc2ccccc2/C1=N\O [Indirubin-3′-oxime] | – | – | 22
